For one compound, EC50 results are on record in article PMC4734766, “Pentamidine Is Not a Permeant but a Nanomolar Inhibitor of the Trypanosoma brucei Aquaglyceroporin-2” (PLoS Pathogens, 2016).

Structures are written as SMILES.

The experiment deals with aqp2-null T. brucei expressing wild-type TbAQP2. The experiment is described as follows: alamarBlue EC50 assay, aqp2-null strain re-expressing wild-type GFP-TbAQP2. The note with it: Trypanosoma brucei. Background: Alamar Blue is a resazurin reagent that responds to reducing activity.

A word on the EC50: it is the concentration giving half of the maximal effect. A high value points to a need for much substance.

On to `N=C(N)c1ccc(OCCCCCOc2ccc(C(=N)N)cc2)cc1` [pentamidine], for which the EC50 worked out at 0.65 nM. This counts as sub-nanomolar.
